Results: patent US9440982B2 (Eolas Therapeutics, Inc., priority 2012, dated 2016)

Amino acid sequences for entries named in this document (tags omitted).
UniProt O43613, whole entry: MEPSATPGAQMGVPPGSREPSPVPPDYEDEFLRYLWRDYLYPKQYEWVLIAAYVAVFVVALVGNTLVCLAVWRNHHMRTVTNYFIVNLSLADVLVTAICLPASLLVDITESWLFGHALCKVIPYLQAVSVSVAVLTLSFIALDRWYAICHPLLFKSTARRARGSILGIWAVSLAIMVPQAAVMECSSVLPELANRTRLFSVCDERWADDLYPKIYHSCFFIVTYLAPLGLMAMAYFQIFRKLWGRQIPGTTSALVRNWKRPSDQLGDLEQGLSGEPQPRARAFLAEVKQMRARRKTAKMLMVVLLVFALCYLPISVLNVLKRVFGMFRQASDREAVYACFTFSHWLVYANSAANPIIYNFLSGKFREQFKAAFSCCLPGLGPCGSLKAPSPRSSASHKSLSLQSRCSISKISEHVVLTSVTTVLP
UniProt O43614, whole entry: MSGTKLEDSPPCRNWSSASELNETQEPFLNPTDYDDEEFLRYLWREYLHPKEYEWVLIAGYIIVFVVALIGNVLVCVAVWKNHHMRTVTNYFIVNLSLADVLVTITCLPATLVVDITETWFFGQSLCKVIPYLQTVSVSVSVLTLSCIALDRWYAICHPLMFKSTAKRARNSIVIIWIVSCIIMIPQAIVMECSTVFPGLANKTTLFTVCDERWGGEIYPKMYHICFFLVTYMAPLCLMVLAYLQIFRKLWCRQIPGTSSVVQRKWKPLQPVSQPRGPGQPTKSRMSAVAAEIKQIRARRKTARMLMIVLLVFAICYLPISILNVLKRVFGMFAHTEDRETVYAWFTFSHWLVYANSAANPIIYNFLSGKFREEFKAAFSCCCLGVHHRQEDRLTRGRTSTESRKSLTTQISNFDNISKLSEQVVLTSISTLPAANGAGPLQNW

Tests used:
[1] = target: T1, OX1 (Homo sapiens, UniProt O43613); test: Orexin receptor cell-based functional assay, [Ca2+]i by FLIPR, CHO-OX1 cells
T1 construct: expressed in transfected cells; host or cells: CHO (CHO-OX1, kept under selection antibiotic)

[2] = target: T2, OX2 (Homo sapiens, UniProt O43614); test: Orexin receptor cell-based functional assay, [Ca2+]i by FLIPR, CHO-OX2 cells
T2 construct: expressed in transfected cells; host or cells: CHO (CHO-OX2, kept under selection antibiotic)

[3] = CHO-OX1 cells, [Ca2+]i by FLIPR, antagonist dose-range 0.1 nM-10 μM, EC90 of OXA, read-out: OX1
[4] = Table 6, racemate vs enantiomers, read-out: OX1 IC50

Compound	IC50 [1, 3]	other results
Cc1ccc(-c2cnn(C)c2)c(C(=O)N2CCC[C@@H](C)[C@H]2CNc2ccc(C(F)(F)F)cn2)c1 [Example A1, ((2S,3R)-3-Methyl-2-(((5-(trifluoromethyl)pyridin-2-yl)amino)methyl)piperidin-1-yl)(5-methyl-2-(1-methyl-1H-pyrazol-4-yl)phenyl)methanone]	2 nM	IC50 [1, 4]: 2 nM; IC50 ([2]; Table 6, racemate vs enantiomers, read-out: OX2 IC50): 4000 nM
Cc1ccc(-c2cnn(C)c2)c(C(=O)N2CCC[C@@H](C)[C@H]2CNc2nc3cc(Cl)ccc3o2)c1 [Example A40, ((2S,3R)-2-(((5-Chlorobenzo[d]oxazol-2-yl)amino)methyl)-3-methylpiperidin-1-yl)(5-methyl-2-(1-methyl-1H-pyrazol-4-yl)phenyl)methanone]	–	IC50 ([2]; CHO-OX2 cells, [Ca2+]i by FLIPR, antagonist dose-range 0.1 nM-10 μM, EC90 of OXA, read-out: OX2): 900 nM
Cc1cccc(C(=O)N2CCC[C@@H](C)[C@H]2CNc2ncc(Cl)cn2)c1-n1nccn1 [Example A268, ((2S,3R)-2-(((5-Chloropyrimidin-2-yl)amino)methyl)-3-methylpiperidin-1-yl)(3-methyl-2-(2H-1,2,3-triazol-2-yl)phenyl)methanone]	3 nM	–
Cc1ccc(-c2ncccn2)c(C(=O)N2CCC(F)(F)C[C@H]2CNc2ncc(C(F)(F)F)cn2)c1 [Example A312, (S)-(4,4-Difluoro-2-(((5-(trifluoromethyl)pyrimidin-2-yl)amino)methyl)piperidin-1-yl)(5-methyl-2-(pyrimidin-2-yl)phenyl)methanone]	144 nM	–
Cc1ccc(-c2cnn(C)c2)c(C(=O)N2CCC[C@H](C)[C@@H]2CNc2ccc(C(F)(F)F)cn2)c1 [Example A315, ((2R,3S)-3-Methyl-2-(((5-(trifluoromethyl)pyridin-2-yl)amino)methyl)piperidin-1-yl)(5-methyl-2-(1-methyl-1H-pyrazol-4-yl)phenyl)methanone]	2500 nM	IC50 [1, 4]: 2500 nM

The next lines start with results.

IC50 [1, 3]	Compound	other results
6 nM	Cc1cccc(C(=O)N2CCC[C@@H](C)[C@H]2CNc2ncc(C(F)(F)F)cn2)c1-n1nccn1 [Example A267, ((2S,3R)-3-Methyl-2-(((5-(trifluoromethyl)pyrimidin-2-yl)amino)methyl)piperidin-1-yl)(3-methyl-2-(2H-1,2,3-triazol-2-yl)phenyl)methanone]	–
86 nM	Cc1ccc(C(=O)N2CCC[C@@H](C)[C@H]2CNc2ncc(Cl)cn2)c(-n2nccn2)c1 [Example A271, ((2S,3R)-2-(((5-Chloropyrimidin-2-yl)amino)methyl)-3-methylpiperidin-1-yl)(4-methyl-2-(2H-1,2,3-triazol-2-yl)phenyl)methanone]	–
< 10 nM	COc1ccc(-n2nccn2)c(C(=O)N2CCC[C@@H](C)[C@H]2CNc2ccc(C(F)(F)F)cn2)c1F [Example A338, (2-Fluoro-3-methoxy-6-(2H-1,2,3-triazol-2-yl)phenyl)((2S,3R)-3-methyl-2-(((5-(trifluoromethyl)pyridin-2-yl)amino)methyl)piperidin-1-yl)methanone]	–

Like-named read-outs stand apart in the source and are kept apart here.
